Assay results from paper PMC3123277, “Engineering Klebsiella sp. 601 multicopper oxidase enhances the catalytic efficiency towards phenolic substrates” (BMC Biochemistry, 2011).

System: COc1cc(C=NN=Cc2cc(OC)c(O)c(OC)c2)cc(OC)c1O
Test: purified protein
Details: pH 6.8, 50 mM phosphate, 37°C, 0.2 mM CuSO4

Substance | Km | kcat | kcat/Km
Klebsiella sp. 601 MCO (multicopper oxidase) (Klebsiella sp. 601; E106F) | 1.57 ± 0.02 µM | 2.43 ± 0.02 s⁻¹ | 1.5e+06 M⁻¹ s⁻¹
Klebsiella sp. 601 MCO (multicopper oxidase) (Klebsiella sp. 601; E369P/L367G/M362G/M368G/M376K/M379P/R361G) | 1.46 ± 0.02 µM | 4.3 ± 0.05 s⁻¹ | 2.95e+06 M⁻¹ s⁻¹
